Literature values, collected in article PMC9786748, “Carvacrol and HP-β-Cyclodextrin Complexes: Extensive Characterization and Potential Cytotoxic Effect in Human Colorectal Carcinoma Cells” (Pharmaceutics, 2022).
Like-named read-outs stand apart in the source and are kept apart here.

Key:
[1] = set-up: method as in PMID 25298799; settings: with HP-β-CDs; cited from earlier work
[2] = set-up: method as in PMID 25298799; settings: with RAMEB; cited from earlier work
[3] = set-up: method as in PMID 25298799; settings: with CRYSMEB; cited from earlier work

In the case of isoeugenol, the “CE (complexation efficiency)” value [1] is given as 1.82, the “CE (complexation efficiency)” value [2] is given as 1.73 and the “CE (complexation efficiency)” value [3] is given as 1.26.
